The values below come from US6548494B1, “Tricyclic inhibitors of poly(ADP-ribose) polymerases” (Agouron Pharmaceuticals, Inc., priority 1999, dated 2003).

Chains of the proteins cited; added tags and fusions are not shown.
UniProt P09874, whole entry: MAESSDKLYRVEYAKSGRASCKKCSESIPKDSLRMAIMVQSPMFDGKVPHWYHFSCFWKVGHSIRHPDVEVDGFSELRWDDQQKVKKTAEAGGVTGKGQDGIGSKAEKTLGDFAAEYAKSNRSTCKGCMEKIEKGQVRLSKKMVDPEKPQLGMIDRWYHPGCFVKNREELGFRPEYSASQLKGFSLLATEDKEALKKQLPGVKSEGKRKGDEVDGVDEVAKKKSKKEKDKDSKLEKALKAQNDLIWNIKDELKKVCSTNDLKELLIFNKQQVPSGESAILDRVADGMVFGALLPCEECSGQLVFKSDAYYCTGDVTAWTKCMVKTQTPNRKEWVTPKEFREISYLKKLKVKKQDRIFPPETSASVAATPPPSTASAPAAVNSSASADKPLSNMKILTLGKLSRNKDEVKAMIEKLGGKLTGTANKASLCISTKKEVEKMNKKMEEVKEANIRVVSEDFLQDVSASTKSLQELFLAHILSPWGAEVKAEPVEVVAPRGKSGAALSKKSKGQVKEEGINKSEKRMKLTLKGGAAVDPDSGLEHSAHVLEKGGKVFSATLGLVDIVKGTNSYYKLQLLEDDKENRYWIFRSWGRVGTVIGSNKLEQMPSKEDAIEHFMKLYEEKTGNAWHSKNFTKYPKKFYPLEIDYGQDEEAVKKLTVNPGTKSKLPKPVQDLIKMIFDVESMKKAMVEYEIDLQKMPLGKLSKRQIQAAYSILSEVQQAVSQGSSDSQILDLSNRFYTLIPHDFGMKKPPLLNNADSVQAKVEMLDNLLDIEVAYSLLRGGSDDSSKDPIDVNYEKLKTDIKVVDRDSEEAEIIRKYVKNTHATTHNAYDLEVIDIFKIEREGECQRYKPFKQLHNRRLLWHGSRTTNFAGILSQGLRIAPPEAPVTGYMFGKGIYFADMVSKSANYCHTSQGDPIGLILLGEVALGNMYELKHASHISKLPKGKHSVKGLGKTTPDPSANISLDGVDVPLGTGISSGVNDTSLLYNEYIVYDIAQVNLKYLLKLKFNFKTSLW

What is called Ki is a measure of affinity in units of concentration, obtained from inhibition or displacement.

This test concerns the target purified PARP protein (Homo sapiens, UniProt P09874). In words: PARP enzyme inhibition assay. As to conditions: 20 nM purified PARP (5 nM for tight-binding inhibitors), 500 μM NAD+, 25° C.; several values in one cell = repeat determinations; read-out: Inhibition Constant Ki. The class given is biochemical.

As to `Cc1c(-c2ccc(F)cc2)n2c3c(cccc13)C(=O)NCC2` [Example 50, 6-(4-Fluoro-phenyl)-7-methyl-3,4-dihydro-2H-[1,4]diazepino[6,7,1-hi]indol-1-one], the Ki was found to be 22 nM.
